EP0153845A2, “CRF analogs” (THE SALK INSTITUTE FOR BIOLOGICAL STUDIES, priority 1984, dated 1985)

Experiments:
[1] = tested on: spontaneous ACTH release; assay: Spontaneous ACTH release by adrenalectomized rats; assay type: in vivo; conditions: iv injection of 3 mg/kg BW (2.7 nmole)
Protocol: The synthetic CRF antagonists from Examples XLI and XLII are examined for their effects on the secretion of ACTH and B-endorphin in vitro and the synthetic AHC peptide is also examined in vivo. The effectiveness of synthetic CRF antagonists to block the secretion of ACTH and B-endorphin by cultured rat pituitary cells is measured using the procedure as generally set forth in Vale et al., Endocrinology, 91, 562 (1972). In vivo testing is carried out using the general procedure set forth in C. Rivier et al., Science, 218, 377 (1982).
The in vivo effect of CRF antagonists is tested on the spontaneous ACTH release by adrenalectomized rats.

[2] = tested on: CRF-induced ACTH secretion; assay: CRF-induced ACTH secretion in intact, non-anesthetized rats; assay type: in vivo

CSCC[C@H](NC(=O)[C@H](CCC(=O)O)NC(=O)[C@H](CC(C)C)NC(=O)[C@H](CCSC)NC(=O)[C@H](CCC(=O)O)NC(=O)[C@H](CCCNC(=N)N)NC(=O)[C@H](CC(C)C)NC(=O)[C@H](CC(C)C)NC(=O)[C@H](Cc1c[nH]cn1)NC(=O)[C@H](Cc1ccccc1)NC(=O)[C@@H](NC(=O)[C@H](CC(C)C)NC(=O)[C@@H](N)CC(=O)O)[C@@H](C)O)C(=O)N[C@@H](C)C(=O)N[C@@H](CCCCN)C(=O)N[C@@H](C)C(=O)N[C@@H](CCC(=O)O)C(=O)N[C@@H](CCC(N)=O)C(=O)N[C@@H](CCC(=O)O)C(=O)N[C@@H](C)C(=O)N[C@@H](CCC(=O)O)C(=O)N[C@@H](CCC(N)=O)C(=O)N[C@@H](C)C(=O)N[C@@H](C)C(=O)N[C@@H](CC(C)C)C(=O)N[C@@H](CC(N)=O)C(=O)N[C@@H](CCCNC(=N)N)C(=O)N[C@@H](CC(C)C)C(=O)N[C@@H](CC(C)C)C(=O)N[C@@H](CC(C)C)C(=O)N[C@@H](CCC(=O)O)C(=O)N[C@@H](CCC(=O)O)C(=O)N[C@@H](C)C(N)=O [AHC (9-41)]
time for which the decrease in plasma ACTH levels is statistically significant [1]: 2 h
dose level at which inhibition of CRF-induced ACTH secretion is significant [2]: 0.09 pmol
